Literature values as cited in publication PMC6359455, “Partial Solvation Parameters of Drugs as a New Thermodynamic Tool for Pharmaceutics” (Pharmaceutics, 2019).

Design: method as in doi:10.1021/acs.iecr.7b02286
Conditions: common solvents; cited from earlier work

In the case of `CCc1ccccc1` [Ethylbenzene], the “E (excess refractivity LSER descriptor)” value is listed as 0.610.
